In ChEMBL document CHEMBL5154771, “Discovery of Potential Neuroprotective Agents against Paclitaxel-Induced Peripheral Neuropathy” (J Med Chem, 2022):
The source made the active and inactive calls. The rule behind the calls is not given here.

Experiments:
[1] = system: Mus musculus; test: Neuroprotective activity against paclitaxel-induced thermhypesthesia in C57BL/6J mouse neuropathy model assessed as increase in thermal sensation by measuring tail flick latency at 10 to 20 mg/kg, ip administered 1 hr prior to paclitaxel treatment on day 1, 3, 5, 7 and measured weekly for 5 weeks …; details: dose 10-20 mg/kg
[2] = system: Mus musculus; test: Neuroprotective activity against paclitaxel-induced thermhypesthesia in C57BL/6 mouse neuropathy model assessed as increase in thermal sensation by measuring tail flick latency at 5 mg/kg, ip administered 1 hr prior to paclitaxel treatment on day 1, 3, 5, 7 and measured weekly for 5 weeks by tail …

O=P(O)(O)CCN1CCC(Nc2cc(N3CCOCC3)nc(NCc3cn(CCCO)nn3)n2)CC1
Activity [1]: Active
Activity [2]: Active
